Results published in US10807970B2 (priority 2016, dated 2020).

By UniProt entry, the sequences of proteins in these tests, tags left out.
UniProt Q99720, whole entry: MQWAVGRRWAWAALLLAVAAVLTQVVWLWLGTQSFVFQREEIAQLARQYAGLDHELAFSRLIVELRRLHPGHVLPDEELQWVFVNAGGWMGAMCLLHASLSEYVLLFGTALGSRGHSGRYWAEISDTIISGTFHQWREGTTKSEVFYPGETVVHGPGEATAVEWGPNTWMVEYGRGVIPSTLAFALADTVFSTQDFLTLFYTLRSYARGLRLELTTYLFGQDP

Molecular target: human σ1 receptor (Homo sapiens, UniProt Q99720)
Experiment: Human σ1 receptor radioligand assay ([3H](+)-pentazocine, transfected HEK-293 membranes)
Details: read-out: μ and σ1 dual binding; one class symbol for both Ki-σ1 (human σ1 receptor, A1) and Ki-μ (human μ-opioid receptor, A2)
Method: Human σ1 Receptor Radioligand Assay
To investigate binding properties of test compounds to human σ1 receptor, transfected HEK-293 membranes and [^3H](+)-pentazocine (Perkin Elmer, NET-1056), as the radioligand, were used. The assay was carried out with 7 μg of membrane suspension, 5 nM of [^3H](+)-pentazocine in either absence or presence of either buffer or 10 μM Haloperidol for total and non-specific binding, respectively. Binding buffer contained Tris-HCl 50 mM at pH 8. Plates were incubated at 37° C. for 120 minutes. After the incubation period, the reaction mix was then transferred to MultiScreen HTS, FC plates (Millipore), filtered and plates were washed 3 times with ice-cold 10 mM Tris-HCL (pH7.4). Filters were dried and counted at approximately 40% efficiency in a MicroBeta scintillation counter (Perkin-Elmer) using EcoScint liquid scintillation cocktail

Question: Which Ki does the source give for O=C(c1ccccn1)C1(N2CCN(Cc3ccccc3)CC2)CCOC2(CCCC2)C1 (stereo not shown) here?
Answer: The Ki was under 0.1 µM.
